These results are taken from patent publication US20090018642A1, “Methods to improve the stability of celluar adhesive proteins and peptides” (BOSTON SCIENTIFIC SCIMED, INC., priority 2007, published 2009).

The conditions of this series: coated at 100 μM; shelf 4° C. 2 weeks, EtO sterilized; OD at 10 min (405 nm).

Consider “(DOPA)2-(ALA-Aib)3-RIGSY-(Biotin)-OH [PEPTIDE-2]”, for which the “impact of shelving and sterilizing on amount of peptide present on the stainless steel surface” value is “do not negatively impact”.
